In one series the test system is BT-474 tumors. Nature of the series: In vivo antitumor activity, BT-474 HER2 positive breast tumor model. The following applies: BT-474 in SCID mice. How it is done:
ADC-3 has been evaluated for in vivo antitumor activity in BT474 cell line, a HER2 positive breast tumor model.
Briefly, 4 to 6 week-old SCID mice were subcutaneously implanted with tumor fragments previously generated in donor mice. Before the initiation of each experiment, a blinded, independent determination of C-erb2 (oncogene related with HER-2 expression) by IHC was performed.
The animals were implanted as described above and when tumors reached ca. 150-200 mm3, tumor bearing animals (N=10/group) were randomly allocated into treatment groups according to the following experimental design:
Treatments were administered intravenously on days 0.7.14, 21 and 28 (q7dx5).
Median was calculated for tumor volume on each measurement day. Complete tumor regression (CR) was defined when tumor volume <63 mm^3 for 2 or more consecutive measurements.

The subject of series [1] is SK-BR-3, HCC-1954, MDA-MB-231 and MCF-7 cells. An excerpt: The aim of the assay was to evaluate the in vitro cytostatic (ability to delay or arrest tumor cell growth) or cytotoxic (ability to kill tumor cells) activity of the samples being tested.
The following human tumor cell lines were obtained from the American Type Culture Collection (ATCC): SK-BR-3 (ATCC HB-30), HCC-1954 (ATCC CRL-2338) (both being breast cancer, HER2+), MDA-MB-231 (ATCC HTB-26), MCF-7 (ATCC HTB-22) (both being breast cancer, HER2−).
For SK-BR-3, HCC-1954, MDA-MB-231 and MCF-7 cells, a colorimetric assay using Sulforhodamine B (SRB) was adapted for quantitative measurement of cell growth and cytotoxicity, as described by V. Vichai and K. Kirtikara. In “Sulforhodamine B colorimetric assay for cytotoxicity screening”, Nature Protocols, 2006, 1: 1112-1116. Briefly, cells were seeded in 96-well microtiter plates and allowed to stand for 24 hours in drug-free medium before treatment with vehicle alone or with the tested substances for 72 hours. For quantification, cells were washed twice with phosphate buffered saline (PBS), fixed for 15 min in 1% glutaraldehyde solution, rinsed twice with PBS, stained in 0.4% (w/v) SRB with 1% (v/v) acetic acid solution for 30 min, rinsed several times with 1% acetic acid solution and air-dried.
Cell survival was expressed in all cases as percentage of control, untreated cell survival. […]

As for “Kadcyla: comparator treatment group at 30 mg/kg in the BT-474 study; text does not define the trade name (presumably Trastuzumab emtansine)”, the tumor regressions with BT-474 tumors (30.0 mg/kg intravenously q7dx5, from day 14 to day 190) is given as 7 out of 7.

For “Trastuzumab: monoclonal antibody that interferes with the HER2/neu receptor; purchased from Roche”, in series [1], the “cytotoxicity / IC50 range in words” value was “completely inactive”. Further, the complete tumor regressions result with BT-474 tumors (30 mg/Kg intravenously q7dx5, CR = tumor volume <63 mm^3 for 2 or more consecutive measurements) is on record as “not achieved”. In the series with BT-474 tumors (30 mg/Kg intravenously q7dx5, statistically significant, p<0.038 from day 12 until last registered day), the antitumor activity result is reported as “marked antitumor activity”.

The values are drawn from patent US20230218774A1, “DRUG ANTIBODY CONJUGATES” (PHARMA MAR, S.A., priority 2019, published 2023).
